Earlier results, collected in patent publication US11813252B2 (dated 2023).
“And” between values parts separate entries of the source, which are not always exact repeats. Equal entries are not always repeated. Where two headings read alike, the source gives them in different places.

Protein sequences, listed by entry. Tags and fused reporters are not part of them. Lines headed by an entry give the natural chain unless they say otherwise; changes in a name come on top.
UniProt Q12809: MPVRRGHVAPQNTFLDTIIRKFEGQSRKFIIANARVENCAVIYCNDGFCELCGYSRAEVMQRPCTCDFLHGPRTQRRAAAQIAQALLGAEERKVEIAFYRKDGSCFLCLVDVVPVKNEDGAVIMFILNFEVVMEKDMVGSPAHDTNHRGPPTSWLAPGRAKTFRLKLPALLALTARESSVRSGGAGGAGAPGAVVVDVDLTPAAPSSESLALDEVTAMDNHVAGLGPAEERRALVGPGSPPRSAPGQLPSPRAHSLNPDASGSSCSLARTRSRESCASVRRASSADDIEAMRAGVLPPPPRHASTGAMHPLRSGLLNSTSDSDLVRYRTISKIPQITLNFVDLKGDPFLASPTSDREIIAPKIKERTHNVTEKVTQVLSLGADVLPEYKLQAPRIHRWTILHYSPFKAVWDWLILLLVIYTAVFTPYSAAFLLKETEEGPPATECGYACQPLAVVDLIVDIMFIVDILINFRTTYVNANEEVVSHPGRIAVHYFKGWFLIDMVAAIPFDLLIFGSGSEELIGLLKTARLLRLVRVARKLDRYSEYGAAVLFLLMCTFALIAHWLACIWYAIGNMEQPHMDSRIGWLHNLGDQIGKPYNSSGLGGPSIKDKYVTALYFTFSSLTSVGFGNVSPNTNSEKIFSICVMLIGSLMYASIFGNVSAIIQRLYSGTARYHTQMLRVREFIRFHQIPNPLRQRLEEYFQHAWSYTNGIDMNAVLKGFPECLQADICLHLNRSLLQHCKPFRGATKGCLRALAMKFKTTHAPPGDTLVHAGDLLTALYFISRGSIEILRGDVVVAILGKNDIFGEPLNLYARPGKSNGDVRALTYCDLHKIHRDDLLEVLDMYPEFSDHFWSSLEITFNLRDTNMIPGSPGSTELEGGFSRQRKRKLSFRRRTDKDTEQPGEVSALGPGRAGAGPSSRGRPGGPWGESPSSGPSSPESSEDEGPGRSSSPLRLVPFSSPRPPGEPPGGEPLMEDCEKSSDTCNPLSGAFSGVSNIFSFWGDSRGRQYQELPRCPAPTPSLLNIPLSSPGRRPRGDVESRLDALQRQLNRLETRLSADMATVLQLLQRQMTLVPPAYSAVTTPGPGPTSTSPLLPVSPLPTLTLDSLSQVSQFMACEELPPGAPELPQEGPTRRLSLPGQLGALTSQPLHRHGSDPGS

Biological target: hERG K+ channel (Homo sapiens, UniProt Q12809)
Settings: CDER pharmacological review NDA 22-068, cited from earlier work

Cc1cn(-c2cc(NC(=O)c3ccc(C)c(Nc4nccc(-c5cccnc5)n4)c3)cc(C(F)(F)F)c2)cn1 [Nilotinib, nilotinib]
percentage inhibition of hERG current (0.03 μM): 14.9 ± 2%
percentage inhibition of hERG current (0.1 μM): 43.9 ± 0.7%
percentage inhibition of hERG current (0.3 μM): 70.4 ± 2.5%
percentage inhibition of hERG current (1 μM): ~90% and 89.7 ± 1.6%
